Source: patent US20250129430A1, “HIGH ATP-AFFINITY PROTEIN AS THERAPEUTIC TARGET FOR INTRACTABLE CANCER MOLECULAR SUBTYPES AND INHIBITOR THEREOF” (VeraVerse Co., Ltd., priority 2021, published 2025)

System: FU97
Test: Cell viability drug screen, 12-point dose-response AUC
Type: cell-based, human
Set-up: scale not given here
Details: FU97 cells; 72 hours
Protocol: Cells cultured for cell-based drug assay were inoculated into a 96-well white optical plate (Corning) at 5×10^3 cells per well. After 24 hours after inoculation, a 2.5 MJT (primary screen) or a half-log 12-serial diluent (secondary screen) of the pharmacological compound contained in DMSO is added to the cells with a robot using a BioMek FXp liquid processor (Beckman) to add to the cells at 50 mM. The final drug concentration in the 5 ns range and the DMSO specification control (0.5%) were calculated. The cells were then further incubated at 37° C. in a 5% CO2 incubator for 72 hours prior to measuring cell viability using the extra-GLO assay kit (Promega). The luminescent properties were measured after 15 min incubation at room temperature using a plate stacker equipped with a plate stacker. The normalized viability for the DMSO-based control was measured to generate a cell line-specific 12-point dose-response curve for each pharmacological compound, and then the area under the curve (AUC) was calculated using a trapezoidal method.

Q: `Cc1ccc(C(=O)N(CCCN)[C@@H](c2nc3cc(Cl)ccc3c(=O)n2Cc2ccccc2)C(C)C)cc1` [Ispinesib (SB-715992), Ispinesib] was tested. Which “Average Area Under the Viability Curve (AUC), AUC norm value” did it give?
A: Its value is 1.3405.
